These results are taken from PubChem BioAssay AID1022 (Emory University Molecular Libraries Screening Center, 2008).

Chains of the proteins cited; added tags and fusions are not shown.
UniProt Q07820, whole entry: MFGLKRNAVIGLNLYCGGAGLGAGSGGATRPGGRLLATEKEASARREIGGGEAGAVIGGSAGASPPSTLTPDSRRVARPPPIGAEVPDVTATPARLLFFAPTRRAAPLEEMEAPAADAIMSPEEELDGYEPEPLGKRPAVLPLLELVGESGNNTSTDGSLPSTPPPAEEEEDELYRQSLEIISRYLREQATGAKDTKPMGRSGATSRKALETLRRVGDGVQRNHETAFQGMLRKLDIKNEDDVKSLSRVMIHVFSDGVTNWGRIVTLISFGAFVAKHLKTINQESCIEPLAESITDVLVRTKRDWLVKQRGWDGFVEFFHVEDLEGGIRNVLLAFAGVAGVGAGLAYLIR

The list shows a part of the results, in another mix than the full data. Activity calls are given as the source filed them.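 Rule for the calls: active = compounds that cut the protein-peptide binding signal by more than 50% relative to plate controls in a single-dose test; inactive = the rest.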

The assay has as its target Induced myeloid leukemia cell differentiation protein Mcl-1 (Homo sapiens) (UniProt Q07820). Nature of the assay: Mcl-1/Noxa binding inhibitors, primary screen, biochemical, TR-FRET, 1536-well (AID 1022).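 Note: His-tagged Mcl-1 with rhodamine Noxa BH3 peptide and terbium anti-His antibody; 0% = Mcl-1 plus Noxa peptide wells and 100% = peptide-only wells.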 As to conditions: TR-FRET Mcl-1/Noxa peptide binding, 2 h; at 21.7 µM; hits give high values. For orientation: In TR-FRET formats the signal depends on donor and acceptor labels being close together.
As to `CN(C(=O)Cc1ccc(Cl)c(Cl)c1)[C@@H]1CCCC[C@H]1N1CCCC1`, the inhibition (commonly the percentage by which the read-out fell short of the control) was inactive: 5.79%.
